Here are results for 3 molecules from ChEMBL document CHEMBL1130164, “Synthesis and protein kinase C inhibitory activities of balanol analogs with replacement of the perhydroazepine moiety” (J Med Chem, 1997).

In experiment [1] the target is cAMP-dependent protein kinase catalytic subunit alpha (Homo sapiens, UniProt P17612). Nature of the experiment: Inhibitory concentration against recombinant human cAMP-dependent Protein kinase A.
In experiment [2] the target is T1, Protein kinase C epsilon type (Homo sapiens, UniProt Q02156).
T1 sequence (Q02156 whole entry): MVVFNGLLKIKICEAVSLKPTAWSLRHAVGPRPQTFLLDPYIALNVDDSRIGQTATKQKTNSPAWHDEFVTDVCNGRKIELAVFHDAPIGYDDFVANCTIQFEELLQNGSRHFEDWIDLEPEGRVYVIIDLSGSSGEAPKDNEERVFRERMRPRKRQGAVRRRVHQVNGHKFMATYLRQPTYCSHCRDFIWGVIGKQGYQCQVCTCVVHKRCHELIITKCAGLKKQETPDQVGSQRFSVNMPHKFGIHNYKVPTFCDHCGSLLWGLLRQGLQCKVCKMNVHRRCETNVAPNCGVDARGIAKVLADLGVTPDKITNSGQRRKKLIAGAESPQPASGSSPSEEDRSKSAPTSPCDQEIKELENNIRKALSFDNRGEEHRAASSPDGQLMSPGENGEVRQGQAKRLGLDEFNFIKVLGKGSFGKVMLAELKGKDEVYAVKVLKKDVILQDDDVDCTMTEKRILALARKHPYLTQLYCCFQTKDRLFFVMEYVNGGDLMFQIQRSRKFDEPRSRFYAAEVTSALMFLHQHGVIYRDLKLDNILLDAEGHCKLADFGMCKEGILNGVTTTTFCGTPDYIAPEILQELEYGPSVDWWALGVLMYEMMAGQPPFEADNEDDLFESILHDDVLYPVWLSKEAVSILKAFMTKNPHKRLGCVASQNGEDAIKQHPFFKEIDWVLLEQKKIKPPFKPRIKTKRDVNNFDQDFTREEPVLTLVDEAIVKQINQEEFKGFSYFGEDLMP
Nature of the experiment: Inhibitory concentration against recombinant human Protein kinase C epsilon isozyme.

Structures are written as SMILES.

For the molecule `O=C(N[C@@H]1CCC[C@H]1OC(=O)c1cc(O)c(C(=O)c2c(O)cccc2C(=O)O)c(O)c1)c1ccc(O)cc1`, in experiment [1], the IC50 came to 30 nM. With `O=C(N[C@H]1CNCCC[C@@H]1OC(=O)c1cc(O)c(C(=O)c2c(O)cccc2C(=O)O)c(O)c1)c1ccc(O)cc1`, the IC50 in experiment [2] came to 1000 nM. As for `O=C(NC1CNCCCC1OC(=O)c1cc(O)c(C(=O)c2c(O)cccc2C(=O)O)c(O)c1)c1ccc(O)cc1` (racemic), the IC50 in experiment [2] was 40 nM.
